Data published in US20230295238A1, “INSULIN RECEPTOR-MEDIATED ENHANCEMENT OF GENE TRANSFER” (THE SCRIPPS RESEARCH INSTITUTE, priority 2020, published 2023).

System: HEK293T cells
Type: cell-based, human
Settings: IR-Fc preincubated with FLuc-encoding eAAV9; luciferase activity 24 h; read-out: IC50 of IR-Fc for decrease in transduction by eAAV9

IR-Fc: construct consisting of the human IR ectodomain fused to an Fc tag, used as a transduction inhibitor
IC50: 0.6 nM
